## Binding of CDR-mutated scFvs to a peptide of the spike HR2 region

Binding partner: SARS-CoV-2 spike HR2 peptide, sequence PDVDLGDISGINAS.

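The starting antibody came from a phage panning campaign against this peptide. Library AAYL50 holds single substitutions and randomly drawn double and triple substitutions in the CDRs. In AlphaSeq, yeast of one mating type display the scFv and yeast of the other type display the target. The frequency of each diploid, read from paired DNA barcodes, reflects how well the two displayed proteins bind. The ratio of observed to expected reads was calibrated, replicate by replicate, on BCL2-family standards whose Kd was known from biolayer interferometry. There are three technical replicates.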

Ab-14 is the parent antibody, in scFv form: VH, then the linker GGGGSGGGGSGGGGS, then VL. The heavy chain is unchanged in all variants.
VH: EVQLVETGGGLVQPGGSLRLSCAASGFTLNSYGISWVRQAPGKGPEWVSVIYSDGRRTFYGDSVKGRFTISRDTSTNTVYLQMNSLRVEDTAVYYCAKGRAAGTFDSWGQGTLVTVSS
VL: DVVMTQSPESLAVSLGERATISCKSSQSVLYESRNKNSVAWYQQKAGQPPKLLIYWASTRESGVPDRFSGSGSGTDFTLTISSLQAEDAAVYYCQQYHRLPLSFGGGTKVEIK

The parent's light chain CDRs are KSSQSVLYESRNKNSVA, WASTRES, QQYHRLPLS; each variant's own CDRs replace them letter for letter.
Every variant below is changed at Y31 of the VL (sequential numbering).
The Kd shown is the geometric mean over detected replicates; a lower Kd is a better binder.
An entry "nd" has no value in the source: the pair was not observed among the diploids in any replicate. This suggests poor binding but is not conclusive.
Background: pairings of library AAYL50 with three empty control strains gave a value in 18% of cases (median 15 µM, 5th percentile 970 nM). Values in that range, when seen in few replicates, are hard to tell from nonspecific mating. For each scFv, signals with the empty controls are counted beside the result.

With KSSQSVLAESRNKNSVA / WASTHES / QQYKRLPLS the result was 1.1 µM (3 of 3 replicates; controls 0 of 9). For KSSQSVETESRPKNSVA / WASTRES / QQYHRLPLS, the assay gave 14 nM (3 of 3 replicates; controls 6 of 9). Variant KSSQSVLTESRNKNSVA / WMSTRES / QPYHRLPLS showed 110 nM (3 of 3 replicates; controls 5 of 9). With KSSQSVLFESINKNSVA / WASTRES / VQYHRLPLS the result was 3.3 nM (3 of 3 replicates; controls 1 of 9). Variant KSSQSVLDTSRNKNSVA / WASTRES / QQQHRLPLS showed nd (0 of 3 replicates; controls 0 of 9). With KSSQSVLPESRNKNKVA / WASTRES / QQYHRAPLS the result was 17 µM (1 of 3 replicates; controls 1 of 9). Variant KSSQSVLKESRNKNDVA / WANTRES / QQYHRLPLS gave 87 nM (3 of 3 replicates; controls 2 of 9). For KSSQSVLPESRNANSVA / WASTRES / QQYPRLPLS, the assay gave nd (0 of 3 replicates; controls 2 of 9).

For KSSQDVKTESRNKNSVA / WASTRES / QQYHRLPLS, the assay gave 5.6 nM (3 of 3 replicates; controls 1 of 9). With KSSQSVLMYSRNKNSGA / WASTRES / QQYHRLPLS the result was nd (0 of 3 replicates; controls 3 of 9). For KSSQSVLKESRNKNSYA / WASTRES / QQYHRVPLS, the assay gave nd (0 of 3 replicates; controls 1 of 9). Variant KSSQSVLRESRNKNSVA / WASSRES / QQHHRLPLS gave 45 µM (1 of 3 replicates; controls 1 of 9). Variant KSSQSVLKEQRNKNSVA / WASTTES / QQYHRLPLS showed 2.7 µM (3 of 3 replicates; controls 2 of 9). Variant PSSQSVLDESRNKNSVA / WASTRES / QQYHRLNLS showed nd (0 of 3 replicates; controls 4 of 9). With KSSQSVLWESRNKNSVA / WAHTRES / QQYHRLPLS the result was 45 nM (3 of 3 replicates; controls 1 of 9). Variant KSSQSVLWESRMKNSVA / WASTRES / QQWHRLPLS gave 39 nM (3 of 3 replicates; controls 6 of 9).

Variant KSSQSVLEESRNKNSVA / WVSTRES / QQYHRLPLS gave nd (0 of 3 replicates; controls 0 of 9). Variant KSSQSVLVLSRNKNSVA / WASTRVS / QQYHRLPLS gave 18 nM (3 of 3 replicates; controls 2 of 9). Variant KISQSVLMESRNKNSVA / WASTRHS / QQYHRLPLS gave 1.5 nM (3 of 3 replicates; controls 3 of 9). Variant KSSQSVPQESRNKNSVA / WASTMES / QQYHRLPLS showed 220 nM (1 of 3 replicates; controls 0 of 9). For KSSQAVLKESRNKNSVA / WASTRES / QQYHRLPLS, the assay gave 100 nM (3 of 3 replicates; controls 4 of 9). For KSSQSVLGESRNKNSVA / WASRRES / QQTHRLPLS, the assay gave nd (0 of 3 replicates; controls 0 of 9). Variant KSSQSVLRESRNKNSVA / QASTVES / QQYHRLPLS showed 35 nM (3 of 3 replicates; controls 0 of 9). Variant KSSQSVISESRNKTSVA / WASTRES / QQYHRLPLS showed 750 nM (3 of 3 replicates; controls 2 of 9).

For KSSQSVLWESRNKNSDA / WASTRES / HQYHRLPLS, the assay gave 18 µM (3 of 3 replicates; controls 4 of 9). For KCSQSVLIESRNKNSVA / WASTRES / QQYERLPLS, the assay gave 4.5 nM (3 of 3 replicates; controls 1 of 9). For KSLQSVLIESRNKNSVA / WASTRES / QIYHRLPLS, the assay gave 900 nM (1 of 3 replicates; controls 0 of 9). Variant KSSQSVLPESRNKNSMA / WASTRES / HQYHRLPLS showed nd (0 of 3 replicates; controls 1 of 9). Variant KSSQPVLMESRNKNFVA / WASTRES / QQYHRLPLS gave 540 nM (3 of 3 replicates; controls 2 of 9). Variant KSSQSVPQESRNVNSVA / WASTRES / QQYHRLPLS showed 31 nM (3 of 3 replicates; controls 0 of 9). For ESSQSVWMESRNKNSVA / WASTRES / QQYHRLPLS, the assay gave 4.6 nM (3 of 3 replicates; controls 4 of 9). With KSSQSVLLENRNHNSVA / WASTRES / QQYHRLPLS the result was 4.7 nM (3 of 3 replicates; controls 0 of 9).

With KSSQSVLWESRNKNSVA / WAGTRES / QQYPRLPLS the result was 68 µM (3 of 3 replicates; controls 4 of 9). With KSWQSVLIYSRNKNSVA / WASTRES / QQYHRLPLS the result was 100 µM (2 of 3 replicates; controls 8 of 9). Variant KSSQSVLNESHNKNSVA / WASTRES / QQYHRLPPS showed 46 nM (3 of 3 replicates; controls 7 of 9). For KSSQSVLHESRNKNSVA / WASTRCS / QQYDRLPLS, the assay gave 18 nM (3 of 3 replicates; controls 3 of 9). Variant KSSQSVLLESRNKNSVA / WASTRAS / QQYHRLDLS gave 10 µM (2 of 3 replicates; controls 1 of 9). Variant KSSQEVLNESRNKNSVD / WASTRES / QQYHRLPLS gave nd (0 of 3 replicates; controls 4 of 9).

Data: MIT Lincoln Laboratory AlphaSeq set, Engelhart et al. 2022, doi:10.1038/s41597-022-01779-4, as distributed in FLAb.